Experimental data taken from patent publication US10508104B2, “6-hydroxy-5-(phenyl/heteroarylsulfonyl)pyrimidin-4(1H)-one as APJ agonists” (Bristol-Myers Squibb Company, priority 2016, dated 2019).

Amino acid sequences for entries named in this document (tags omitted).
UniProt P35414, whole entry: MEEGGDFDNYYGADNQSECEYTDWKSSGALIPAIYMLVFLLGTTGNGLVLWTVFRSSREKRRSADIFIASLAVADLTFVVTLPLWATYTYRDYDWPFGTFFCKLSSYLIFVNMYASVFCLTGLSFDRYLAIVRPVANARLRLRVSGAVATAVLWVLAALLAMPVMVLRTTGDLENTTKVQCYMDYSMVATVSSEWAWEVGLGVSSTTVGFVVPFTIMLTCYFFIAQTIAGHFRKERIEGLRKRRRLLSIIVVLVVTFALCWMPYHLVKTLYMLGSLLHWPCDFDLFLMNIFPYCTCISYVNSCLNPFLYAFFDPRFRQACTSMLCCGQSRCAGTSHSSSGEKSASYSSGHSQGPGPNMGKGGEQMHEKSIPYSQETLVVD

Target: human APJ receptor (Homo sapiens (Human), UniProt P35414)
Test: Intracellular cAMP accumulation assay (APJ hcAMP, HTRF)
Conditions: read-out: Human APJ cAMP EC50 Potency range; HEK293 cells stably expressing human APJ receptor; inhibition of forskolin-mediated cAMP production

- EC50: 0.01 to 10 nM
Compound: CCCCc1nc(=O)c(S(=O)(=O)c2ccc(-c3ccncc3C)cc2)c(O)n1[C@@H](CC)c1ccccc1F
